Only a part is listed here, and it is no random draw. Activity calls are given as the source filed them.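 The calls were made as follows: active = inhibition above the mean over all tested compounds plus 3 SD (cut at about 4.2% in these data); inactive = the rest.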
target: Nuclear receptor subfamily 0 group B member 1 (Homo sapiens) (UniProt P51843); experiment: relief of DAX1 transcriptional repression – cell-based, HEK293, Gal4-DAX1, luciferase luminescence, primary screen (AID 504766); details: HEK293 Gal4-DAX1 luciferase reporter, at 6.75 µM, active compounds read high;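 also: 0% = DAX1-transfected cells with DMSO and 100% = empty-vector control cells with DMSO; inhibition shows as a rise in luminescence from relieved DAX1 repression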

Amino acid sequences for entries named in this document (tags omitted). A change or cut given only in a name is not applied to a line headed by its entry.
UniProt P51843: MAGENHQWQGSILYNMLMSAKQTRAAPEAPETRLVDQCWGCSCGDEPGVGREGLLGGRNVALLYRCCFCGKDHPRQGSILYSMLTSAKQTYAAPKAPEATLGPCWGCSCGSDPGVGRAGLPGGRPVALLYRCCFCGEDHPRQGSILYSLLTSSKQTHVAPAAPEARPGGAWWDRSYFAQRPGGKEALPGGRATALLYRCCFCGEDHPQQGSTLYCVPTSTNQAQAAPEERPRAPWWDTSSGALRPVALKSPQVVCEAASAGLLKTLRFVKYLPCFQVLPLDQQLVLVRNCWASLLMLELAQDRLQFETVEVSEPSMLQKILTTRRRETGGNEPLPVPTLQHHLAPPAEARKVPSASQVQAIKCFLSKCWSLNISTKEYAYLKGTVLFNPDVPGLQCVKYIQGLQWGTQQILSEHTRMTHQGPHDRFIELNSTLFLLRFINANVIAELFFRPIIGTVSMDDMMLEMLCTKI

For `CCOC(=O)Nc1cccc([As](=O)(O)O)c1`, which inhibition is on record?
The inhibition was inactive: -0.02%.

With `O=[N+]([O-])c1ccc(Nc2ccc(Oc3ccc([N+](=O)[O-])cc3[N+](=O)[O-])cc2)c([N+](=O)[O-])c1` as the compound, how does the inhibition read?
Its inhibition is inactive: 2.26%.

For `Cc1cc(SC(NC=O)C(Cl)(Cl)Cl)ncn1` (stereo not given), which inhibition is on record?
Its inhibition is inactive: 0.37%.

How did the inhibition turn out when `O=P(Nc1ccccn1)(c1cccc2ccccc12)c1cccc2ccccc12` was run?
The inhibition was inactive: 0.53%.

Which inhibition does the source give for `CC1CCNP(=O)(N(CCCl)CCCl)O1` (stereo not given) here?
Its inhibition is inactive: 1.16%.

`O=C(O)C(O)c1ccc(N(CCCl)CCCl)cc1` (stereo not given) was tested. Which inhibition did it give?
Its inhibition is inactive: 0.32%.

For `CCOC(=O)Nc1ccc([As](=O)(O)O)c(O)c1`, which inhibition is on record?
The inhibition was inactive: 1.54%.

How did the inhibition turn out when `CCCCOc1ccc(C(=O)NCC2(N3CCCCC3)CCCCC2)cc1OC` was run?
Its inhibition is inactive: 1.78%.

How did the inhibition turn out when `Cc1cc(SC(NC(=O)c2ccccc2)C(Cl)(Cl)Cl)nc(C(C)C)n1` (stereo not given) was run?
Its inhibition is inactive: -0.01%.

Which inhibition does the source give for `COP(=O)(OC)N1CC1c1ccccc1` (stereo not given) here?
Its inhibition is inactive: -0.27%.

For `CCOC(=O)c1ccc(NC(=O)C(C)(CCl)SC)cc1` (stereo not given), which inhibition is on record?
Its inhibition is inactive: 1.82%.

Which inhibition does the source give for `O=C(OC1CN2CCC1CC2)c1cccc([N+](=O)[O-])c1` (stereo not given) here?
The inhibition was inactive: 1.2%.

How did the inhibition turn out when `CSc1ccc(Nc2c([N+](=O)[O-])cc([N+](=O)[O-])cc2[N+](=O)[O-])cc1` was run?
Its inhibition is inactive: 0.01%.

`CCC(C)N(CC(C)C)C(=S)SC(NC(C)=O)C(Cl)(Cl)Cl` (stereo not given) was tested. Which inhibition did it give?
The inhibition was inactive: -0.21%.

How did the inhibition turn out when `COP1(=S)c2c(C)nn(CCC#N)c2N=C(c2ccc(F)cc2)N1C` (stereo not given) was run?
The inhibition was inactive: -0.21%.

For `O=C(COc1ccccc1)OC1CN2CCC1CC2` (stereo not given), which inhibition is on record?
The inhibition was inactive: -0.51%.

Which inhibition does the source give for `O=C(Nc1ccncc1[N+](=O)[O-])c1ccc([N+](=O)[O-])cc1[N+](=O)[O-]` here?
Its inhibition is inactive: -0.62%.

`O=C(O)C(=O)c1ccc(N(CCCl)CCCl)cc1` was tested. Which inhibition did it give?
The inhibition was inactive: 0.22%.

`COc1ccccc1CNC(=O)COC(=O)C(O)(c1ccccc1)c1ccccc1` was tested. Which inhibition did it give?
The inhibition was inactive: -0.9%.

For `CC1(CBr)Cn2c(nc3ccccc3c2=O)S1` (stereo not given), which inhibition is on record?
The inhibition was inactive: 2.17%.

For `CN(C(=O)Cc1ccc(Cl)c(Cl)c1)[C@@H]1CCCC[C@H]1N1CCCC1`, which inhibition is on record?
Its inhibition is inactive: -0.38%.

For `CC(C)/C=N\N=C(\N)N[N+](=O)[O-]`, which inhibition is on record?
Its inhibition is inactive: 0.31%.

`CCOP(=O)(Nc1ccc(C)cn1)OCC` was tested. Which inhibition did it give?
Its inhibition is inactive: -0.09%.

With `CCC1=CC2Cc3nc4ccc(Cl)cc4c(N)c3C(C1)C2` (stereo not given) as the compound, how does the inhibition read?
The inhibition was inactive: 0.56%.

With `O=P1(Nc2ccccn2)COc2ccccc2OC1` as the compound, how does the inhibition read?
Its inhibition is inactive: -0.3%.

How did the inhibition turn out when `CCOP(=O)(NC(=NC(C)c1ccccc1)NC(C)c1ccccc1)OCC` (stereo not given) was run?
Its inhibition is inactive: 0.26%.

`Clc1n[nH]nc1-c1nn[nH][15n]1` was tested. Which inhibition did it give?
Its inhibition is inactive: -0.62%.

For `O=P1(N(CCCl)CCCl)NCCC(C(F)(F)F)O1` (stereo not given), which inhibition is on record?
The inhibition was inactive: -0.34%.

With `CC(C)(C)C(=O)NC(Sc1ncccn1)C(Cl)(Cl)Cl` (stereo not given) as the compound, how does the inhibition read?
The inhibition was inactive: 0.92%.

With `O=P1(Nc2ncccn2)COc2ccccc2OC1` as the compound, how does the inhibition read?
The inhibition was inactive: 2.04%.

Which inhibition does the source give for `NS(=O)(=O)c1cccc(NC(=O)COC(=O)C(O)(c2ccccc2)c2ccccc2)c1` here?
The inhibition was inactive: -0.2%.

`O=P1(Nc2ccc(Br)cn2)COc2ccccc2OC1` was tested. Which inhibition did it give?
Its inhibition is inactive: 0.38%.

`O=[As](O)(c1cccs1)c1cccs1` was tested. Which inhibition did it give?
Its inhibition is inactive: 0.47%.

For `Cc1ccc(OCC(=O)OC2CN3CCC2CC3)cc1` (stereo not given), which inhibition is on record?
Its inhibition is inactive: 0.96%.

With `Nc1cccc([As](=O)(O)c2ccccc2)c1` as the compound, how does the inhibition read?
The inhibition was inactive: 0.39%.

How did the inhibition turn out when `Cc1nn(-c2ccccc2)c2c1P(=O)(N1CCOCC1)N(C)C(c1ccccc1)=N2` (stereo not given) was run?
The inhibition was inactive: 0.39%.

For `Cc1ccc(C(=O)OC2CN3CCC2CC3)cc1` (stereo not given), which inhibition is on record?
The inhibition was inactive: 2.02%.

With `CC1CCC(C(C)C)C(OP(=O)(Nc2ccccn2)c2ccccc2)C1` (stereo not given) as the compound, how does the inhibition read?
Its inhibition is inactive: -2.27%.

With `O=C(/C=C/c1ccccc1)OC1CN2CCC1CC2` (stereo not given) as the compound, how does the inhibition read?
The inhibition was active: 7.36%.

With `CCCC1OP(=O)(Nc2ccccc2)OCC1CC` (stereo not given) as the compound, how does the inhibition read?
Its inhibition is inactive: 1.04%.

How did the inhibition turn out when `CN(C)C1(CNC(=O)c2ccc(S(C)(=O)=O)cc2)CCCCC1` was run?
Its inhibition is inactive: -0.92%.

`NC(=O)Nc1ccc([As](=O)(O)O)cc1` was tested. Which inhibition did it give?
The inhibition was inactive: 0.49%.

For `CN(C)C(=O)c1cc([N+](=O)[O-])cc2c1-c1c(cc([N+](=O)[O-])cc1[N+](=O)[O-])C2=O`, which inhibition is on record?
Its inhibition is inactive: -6.37%.

`O=[N+]([O-])c1ccc2c(c1)nnn2O` was tested. Which inhibition did it give?
Its inhibition is inactive: -0.47%.

For `CN(C(=O)Cc1ccc(Cl)c(Cl)c1)[C@H]1CC[C@@]2(CCCO2)C[C@@H]1N1CCCC1`, which inhibition is on record?
Its inhibition is inactive: 0.21%.

How did the inhibition turn out when `N#CCCN(C(=O)COC(=O)C(O)(c1ccccc1)c1ccccc1)c1ccc(F)cc1` was run?
Its inhibition is inactive: -0.31%.

How did the inhibition turn out when `CN(C(=O)Cc1ccccc1)[C@@H]1CC[C@]2(CCCO2)C[C@H]1N1CCCC1` was run?
Its inhibition is inactive: 0.02%.

`CCOP1(=S)c2c(C)nn(CCC#N)c2N=C(c2ccc(F)cc2)N1C` (stereo not given) was tested. Which inhibition did it give?
Its inhibition is inactive: -0.4%.

Which inhibition does the source give for `CS(=O)(=O)c1cc([N+](=O)[O-])c2no[n+]([O-])c2c1` here?
Its inhibition is inactive: 0.28%.

Which inhibition does the source give for `CCOP1(=S)c2c(C)nn(CCC#N)c2N=C(c2ccccc2F)N1C` (stereo not given) here?
Its inhibition is inactive: -0.17%.

For `O=P(Nc1nccs1)(c1ccccc1)c1nc2ccccc2s1` (stereo not given), which inhibition is on record?
Its inhibition is inactive: -2.04%.

`O=P(Nc1nccs1)(Oc1ccccc1)Oc1ccccc1` was tested. Which inhibition did it give?
The inhibition was inactive: -0.12%.

Which inhibition does the source give for `O=C(O)COc1ccc([As](=O)(O)O)cc1[N+](=O)[O-]` here?
The inhibition was inactive: 0.92%.

Which inhibition does the source give for `Nc1ccccc1[As](=O)(O)c1ccccc1` here?
The inhibition was inactive: -1.68%.

Which inhibition does the source give for `CCCOP(=S)(Nc1nc(N)cc(=O)[nH]1)OCCC` here?
Its inhibition is inactive: 0.71%.

For `Nc1cccc2c([As](=O)(O)O)cccc12`, which inhibition is on record?
The inhibition was inactive: 0.91%.

`Cc1ccc(NCCc2c([N+](=O)[O-])cc([N+](=O)[O-])cc2[N+](=O)[O-])cc1` was tested. Which inhibition did it give?
The inhibition was inactive: -0.54%.

`COc1cc(C2NCCC3(OCCO3)C2(C)C)cc(OC)c1OC` (stereo not given) was tested. Which inhibition did it give?
The inhibition was inactive: 0.08%.

How did the inhibition turn out when `CCOP(=O)(Nc1cccc2ccccc12)OCC` was run?
The inhibition was inactive: -0.98%.

With `COc1cc(C(=O)NCC2(N3CCOCC3)CCCCC2)cc(Cl)c1OC(C)C` as the compound, how does the inhibition read?
The inhibition was inactive: 0.74%.

How did the inhibition turn out when `O=[As](O)(O)c1cccnc1` was run?
Its inhibition is inactive: 1.7%.

Which inhibition does the source give for `CS(=O)(=O)c1ccc(Cl)c(NC(=O)COC(=O)C(O)(c2ccccc2)c2ccccc2)c1` here?
The inhibition was inactive: -0.54%.

For `O=C(OC1CN2CCC1CC2)c1ccc(Cl)cc1` (stereo not given), which inhibition is on record?
Its inhibition is inactive: 1%.

Which inhibition does the source give for `O=[As](O)(c1cccc(O)c1)c1cccc(O)c1` here?
Its inhibition is inactive: 1.22%.

Which inhibition does the source give for `Cc1cccc(OCC(=O)OC2CN3CCC2CC3)c1` (stereo not given) here?
The inhibition was inactive: -0.55%.
